According to US7655420B2, “Methods to increase or decrease bone density” (Celltech R & D, Inc., priority 2002, dated 2010):

Key:
Conditions in all cases: 72 hrs
SOST expression = SOST expression in hMSC cells and primary human osteoblasts treated with growth factors and hormones (RT-PCR); format: cell-based
Experimental: As immature osteoblasts differentiate and become capable of mineralization, they express markers associated with the osteoblast phenotype (type I collagen and parathyroid hormone receptor (PTHr)). These markers were used to ascertain whether differentiation had occurred so that the influence of growth factors and hormones could be correlated with the stage differentiation as well as the level of SOST expression.
(§1) Human mesenchymal cells and primary human osteoblasts were plated in regular growth media containing 2% FCS at a density of 10,000 cells 1 cm^2. Test reagents (10^−7 M dexamethasone, 10^−6 M retinoic acid, 10 ng/ml TGF-β1, PTH (10^−8 M), 10 or 50 ng/ml IGF-1, 10^−7 M1,25-dihydroxyvitamin D3, and 50 to 300 ng/ml of bone morphogenetic proteins 2, 4 or 6) were added singly or in combination on the following day.

gremlin expression = gremlin expression in hMSC cells treated with BMPs and steroids (RT-PCR); format: cell-based, human
Experimental: (§2) In this example, the effect of growth factors and hormones on SOST expression in hMSC cells or primary human osteoblasts was observed using RT-PCR. Prior to measuring SOST expression, these cells were treated for 72 hrs with BMP-2, BMP-4, BMP-6, insulin-like growth factor-1 (IGF-1), parathyroid hormone (PTH), transforming growth factor-β (TGF-β), dexamethasone (DEX), retinoic acid (RA), and 1,25-dihydroxyvitamin D3 (vit D). As immature osteoblasts differentiate and become capable of mineralization, they express markers associated with the osteoblast phenotype (type I collagen and parathyroid hormone receptor (PTHr)). These markers were used to ascertain whether differentiation had occurred so that the influence of growth factors and hormones could be correlated with the stage differentiation as well as the level of SOST expression.
as §1, with “day. Cultures were continued for 24 to 120 hrs after which the cells were harvested for RNA isolation. […]” for “day.”

noggin expression = noggin expression in hMSC cells treated with BMPs and steroids (RT-PCR); format: cell-based, human
Experimental: as §2
as §1, with “day. Cultures were continued for 24 to 120 hrs after which the cells were harvested for RNA isolation. […]” for “day.”

B1: BMP-2: bone morphogenetic protein 2, purchased from R & D Systems (protein, UniProt P12643 283-396, looked up)
Bone morphogenetic protein 2: QAKHKQRKRLKSSCKRHPLYVDFSDVGWNDWIVAPPGYHAFYCHGECPFPLADHLNSTNHAIVQTLVNSVNSKIPKACCVPTELSAISMLYLDENEKVVLKNYQDMVVEGCGCR
- SOST expression, factor alone (SOST expression): up-regulated
- gremlin expression, factor alone (gremlin expression): only modestly increased
- noggin expression, factor alone (noggin expression): up-regulated
